Experimental data as given in patent publication EP1855705B1, “ANTIBIOTIC 107891, ITS FACTORS, PHARMACEUTICALLY ACCEPTABLE SALTS AND COMPOSITIONS, AND USE THEREOF” (Sentinella Pharmaceuticals, Inc. ("Sentinella"), priority 2005, dated 2006).

C=C1NC(=O)[C@H](Cc2c[nH]c3ccccc23)NC(=O)[C@H](NC(=O)/C(=C/C)NC(=O)[C@@H](N)C(C)C)CSC[C@@H](C(=O)N[C@H]2C(=O)N3CCC[C@H]3C(=O)NCC(=O)N[C@H](C(=O)N[C@H](C(=O)N[C@@H]3CSC[C@@H]4NC(=O)[C@H](CC(N)=O)NC(=O)[C@@H](CSC[C@@H]5NC(=O)[C@H](Cc6ccccc6)NC(=O)[C@@H](CS/C=C\NC5=O)NC4=O)NC(=O)CNC(=O)CNC(=O)CNC(=O)[C@@H]4CCCN4C3=O)[C@@H](C)O)CS[C@H]2C)NC(=O)[C@H](CC(C)C)NC1=O [MF-BA-1768ß1]
MIC (Enterococcus faecalis): 8 µg/mL (≈ 3.67 µM) | MIC (Staphylococcus aureus): 0.5 µg/mL (≈ 0.229 µM)

In brackets after ≈: the same amount, converted by molar mass.
